Experimental data from patent publication US6569631B1, “Microplate thermal shift assay for ligand development using 5-(4″dimethylaminophenyl)-2-(4′-phenyl)oxazole derivative fluorescent dyes” (3-Dimensional Pharmaceuticals, Inc., priority 1998, dated 2003).

Chains of the proteins cited; added tags and fusions are not shown.
UniProt P05230, whole entry, species assumed: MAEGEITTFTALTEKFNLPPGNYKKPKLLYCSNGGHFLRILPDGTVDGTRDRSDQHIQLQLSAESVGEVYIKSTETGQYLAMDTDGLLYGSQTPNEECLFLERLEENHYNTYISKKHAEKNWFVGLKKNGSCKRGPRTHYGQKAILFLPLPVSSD

Molecular target: T1, acidic fibroblast growth factor (aFGF) (Homo sapiens, UniProt P05230)
T1 construct: host or cells: E. coli
Test: Microplate thermal shift assay for ligands binding to aFGF, turbidity signal
Conditions: relative to aFGF alone (317.15 °K)
Text: The second therapeutic receptor tested in the microplate thermal shift assay was acidic fibroblast growth factor (aFGF), a growth factor that plays a key role in angiogenesis (Folkman, J. et al., J. Biol. Chem. 267:1.0931-10934 (1992)). A synthetic gene for this protein was purchased from R&D Systems (Minneapolis, Minn.), and was cloned and expressed in E. coli using methods similar to those described for basic fibroblast growth factor (bFGF) (Thompson, L. D. et al., Biochemistry 33:3831-3840 (1994); Pantoliano, M. W. et al., Biochemistry 33:10229-10248 (1994); Springer, B. A. et al., J. Biol. Chem. 269:26879-26884 (1994)). Recombinant aFGF was then purified by heparin-sepharose affinity chromatography as described (Thompson, L. D. et al., Biochemistry 33:3831-3840 (1994)). aFGF is also known to bind heparin/heparan, which is a cofactor for mitogenic activity. […] A microplate thermal assay of these compounds was set up in a way similar to that described above for human α-thrombin. […] The affinity constants covered a fairly broad range of binding affinities, with pentosan PSO4 showing the highest affinity.

ΔTm: 0.0 °K
SMILES: N[C@@H](CCC(=O)O)C(=O)N[C@@H](CCC(=O)O)C(=O)N[C@@H](CCC(=O)O)C(=O)N[C@@H](CCC(=O)O)C(=O)N[C@@H](CCC(=O)O)C(=O)O [EEEEE]
